Test results: patent US20130029967A1, “Fused Imidazo [3,2 - D] Pyrazines as P13 Kinase Inhibitors” (Centro Nacional de Investigaciones Oncologicas (CNIO), priority 2009, published 2013)
Where two headings read alike, the source gives them in different places.

Sequences of proteins named here, by UniProt entry; tags and fusion partners are left off.
UniProt P42336, whole entry: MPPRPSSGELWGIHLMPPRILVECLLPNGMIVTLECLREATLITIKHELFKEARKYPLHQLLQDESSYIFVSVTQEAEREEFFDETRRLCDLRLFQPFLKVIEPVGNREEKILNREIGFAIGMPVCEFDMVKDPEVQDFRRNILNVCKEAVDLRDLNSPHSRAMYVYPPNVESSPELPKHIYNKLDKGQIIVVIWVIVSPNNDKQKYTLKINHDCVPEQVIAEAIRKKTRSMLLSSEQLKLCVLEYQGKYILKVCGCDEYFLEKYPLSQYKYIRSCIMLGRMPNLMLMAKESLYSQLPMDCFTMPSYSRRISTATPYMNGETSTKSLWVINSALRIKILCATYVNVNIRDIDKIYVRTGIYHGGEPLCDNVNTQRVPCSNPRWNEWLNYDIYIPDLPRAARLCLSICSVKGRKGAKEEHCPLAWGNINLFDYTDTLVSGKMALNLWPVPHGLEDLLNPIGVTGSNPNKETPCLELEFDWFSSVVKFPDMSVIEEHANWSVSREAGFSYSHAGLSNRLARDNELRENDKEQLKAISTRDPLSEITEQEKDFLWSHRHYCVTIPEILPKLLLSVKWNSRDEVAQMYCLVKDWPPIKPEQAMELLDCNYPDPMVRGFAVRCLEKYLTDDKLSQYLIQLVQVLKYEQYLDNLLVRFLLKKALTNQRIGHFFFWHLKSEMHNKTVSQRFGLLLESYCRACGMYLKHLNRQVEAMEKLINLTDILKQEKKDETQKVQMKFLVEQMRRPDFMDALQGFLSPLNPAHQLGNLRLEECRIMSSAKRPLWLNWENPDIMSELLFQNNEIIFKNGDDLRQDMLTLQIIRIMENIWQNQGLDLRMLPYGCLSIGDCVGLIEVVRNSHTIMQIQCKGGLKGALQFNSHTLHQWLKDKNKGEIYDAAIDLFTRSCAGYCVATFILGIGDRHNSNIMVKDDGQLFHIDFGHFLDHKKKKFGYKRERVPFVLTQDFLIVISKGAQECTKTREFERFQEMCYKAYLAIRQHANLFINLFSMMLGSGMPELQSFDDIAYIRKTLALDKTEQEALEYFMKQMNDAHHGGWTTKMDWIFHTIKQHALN
UniProt P27986, whole entry partner: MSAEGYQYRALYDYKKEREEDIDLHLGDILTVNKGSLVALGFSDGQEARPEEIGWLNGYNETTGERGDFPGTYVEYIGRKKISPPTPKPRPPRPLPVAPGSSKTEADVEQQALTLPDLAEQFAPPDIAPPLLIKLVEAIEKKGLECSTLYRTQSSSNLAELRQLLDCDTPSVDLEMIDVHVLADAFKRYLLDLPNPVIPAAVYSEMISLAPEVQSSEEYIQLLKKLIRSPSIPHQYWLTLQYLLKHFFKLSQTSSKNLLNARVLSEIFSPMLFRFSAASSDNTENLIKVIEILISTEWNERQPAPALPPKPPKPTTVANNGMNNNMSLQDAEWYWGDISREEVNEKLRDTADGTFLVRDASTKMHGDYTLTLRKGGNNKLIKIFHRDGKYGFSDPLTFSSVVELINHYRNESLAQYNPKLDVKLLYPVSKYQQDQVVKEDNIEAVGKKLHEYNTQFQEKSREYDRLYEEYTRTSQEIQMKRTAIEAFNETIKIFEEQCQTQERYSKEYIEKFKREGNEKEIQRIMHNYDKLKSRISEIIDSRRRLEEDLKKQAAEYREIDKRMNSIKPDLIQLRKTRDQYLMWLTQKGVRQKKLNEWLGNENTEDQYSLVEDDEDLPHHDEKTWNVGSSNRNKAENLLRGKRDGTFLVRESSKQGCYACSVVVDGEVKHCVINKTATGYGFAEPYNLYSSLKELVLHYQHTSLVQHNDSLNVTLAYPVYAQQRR

Target: PI3K (p110α/p85α) (Homo sapiens, UniProt P42336)
Assay: PI3K activity assay (ADP Hunter Plus)
Assay type: biochemical
Settings: PI3Kα

IC50 (read-out: PI3K α IC50 (semi-quantitative), class symbols): < 500 nM | IC50 (read-out: PI3K α IC50, quantitative results): 427 nM
SMILES: c1cncc(-c2cn3c4c(nc3c(N3CCOCC3)n2)CCNC4)c1
